Results reported in PubChem BioAssay AID1346985 (Tox21, 2019).
The entries are a selection whose mix differs from that of the whole data set. Records with an inconclusive call do not appear. Calls of active or inactive are those of the source. The call rests on the fitted dose curve; in most records, active means well fitted activation curve with a large enough effect in the repeat runs; inconclusive means weak or mixed curves; inactive means flat fitted curve, though single readings scatter.

molecular target: Nuclear receptor subfamily 1 group I member 2 (Homo sapiens) (UniProt O75469); assay: Human pregnane X receptor (PXR) activation by small molecules, qHTS assay; details: DPX-2 HepG2 CYP3A4-luciferase, 24 h; series mostly up to 38.3 µM; activation: at the top concentration; further: nearly all actives have a fitted effect of over 40% in size
Excerpt: National Center for Advancing Translational Sciences [NCATS]
NIH Chemical Genomics Center [NCGC]
U.S. Environmental Protection Agency [EPA]
National Institutes of Environmental Health Sciences [NIEHS]
National Toxicology Program [NTP]
The Pregnane X receptor (PXR), a ligand activated nuclear receptor plays a critical role in the regulation of genes involved in drug metabolism and transporters. Activation of PXR may be involved in the unwanted adverse drug-drug interactions. […] Therefore, identification of compounds with the potential for PXR activation can be of importance in improving the efficacy of drugs with less toxicity and avoiding drug-drug interactions.
DPX-2 (Puracyp, Inc.) cell lines, used for screening against human PXR activation has HepG2 cells co-transfected with a PXR response element and a luciferase construct containing CYP3A4 promoter. Increase in luciferase activity can be used to identify the compounds that activate the PXR pathway.
DPX-2 cells were dispensed at 2,000 cells per well in 5uL of assay medium into white, solid-bottom 1536-well plates using a Multidrop Combi dispenser (Thermo Scientific). […] Then 5ul One-Glo assay reagent (Promega) was added to each plate by a Flying Reagent Dispenser (FRD, Aurora Discovery) and following 30 min incubation at room temperature, luciferase activity was quantified on a ViewLux plate reader (Perkin Elmer).
On the % scale 0 is the no-effect control and ±100 the full control effect; potency means the concentration at half of the fitted maximal effect.

Structure (SMILES) | Potency | activation
CCC(=O)N(c1ccccc1)C1CCN(CCc2ccccc2)CC1 | active: 10 µM | 
CN(CCCl)CCCl |  | inactive: 6.43%
